Shown are actives, neighbours in structure and some others; about 2.1% of the full set was active somewhere.
UUG fidelity: alters start codon recognition fidelity in yeast; S. cerevisiae UUG-firefly luciferase reporter, luminescence/redox ratio; activity score, % at 18.7 µM; hit rate 0.13% among 350,000;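 active = replicate mean at a twofold rise or more, about +100% in these data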;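 also: firefly luciferase made from a UUG start codon reports start codon fidelity; reporter light over untreated wells divided by growth signal over untreated wells; some hits fall short of that in this replicate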
MITF act: increases MITF-driven TRPM1 promoter luciferase signal. SK-MEL-5 TRPM1-promoter luciferase, 24 h; % of positive control, neutral wells = 0. activation, % at 12.5 µM. hit rate 0.75% among 300,000. AID 588334;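 active means mean activation of at least 80% with every replicate also reaching 80%; inconclusive means mean reaches 80% but some replicate falls short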;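 further: 0% = neutral control wells and 100% = parthenolide positive control wells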
PGC1a acetyl inh: lowers PGC1a acetylation signal in U2OS cells | AlphaScreen anti-acetyl-lysine; with virally co-expressed GCN5 acetyltransferase | inhibition, % at 15.6 µM | hit rate 0.17% among 350,000;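 active means every replicate shows inhibition of at least 40%; inconclusive means mean inhibition at least 40% but some replicate below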;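 further: 0% = neutral control wells and 100% = positive control wells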
miR-122 sensor: miR-122 inhibition in Huh7 cells. Huh7 miR-122 Renilla luciferase sensor, 48 h; neutral wells = 0, positive control = 100. activation (reporter increase), % at 12.5 µM. hit rate 0.3% among 340,000;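 active means mean replicate activation score at least 90 and every replicate individually at or above 90; inconclusive means only one of the two criteria met; inactive means neither criterion met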;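 further: higher luciferase means less miR-122 activity so hits act as miR-122 inhibitors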
MITF TRPM1 inh: MITF TRPM1 promoter inhibition in SK-MEL-5 cells; SK-MEL-5 TRPM1 promoter luciferase, 24 h; inhibition, % at 12.5 µM; hit rate 0.83% among 330,000; AID 488899;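 active means mean inhibition across replicates of 60% or more, whatever share of single replicates reaches that level; inconclusive means some that reach 60%, reason not given; inactive means mean inhibition across replicates below 60%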
Wnt act: activators of Wnt/beta-catenin signaling; Wnt/beta-catenin reporter cell assay, activator, plate reader; activation, % at 9.35 µM; hit rate 1.2% among 300,000; in the data active means activation above about 30%, passing the limit was not always enough; inconclusive means no clear call, values can overlap the other calls;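 further: 0% = neutral control wells and 100% = positive control wells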
Starred values were filed as active, the others as inactive; ? = inconclusive; . = no result; [ ] = dose if it differs, or a comment.

1	c1ccc(-c2noc(-c3ccc4ccccc4c3)n2)nc1
2	c1ccc(-c2noc(-c3ccc4c(c3)OCO4)n2)nc1
3	Cc1noc(C)c1NC(=O)N(C)C[C@H]1Oc2ccc(NC(=O)Nc3ccc(F)cc3)cc2CC(=O)N([C@H](C)CO)C[C@H]1C
4	C[C@H](CO)N1C[C@H](C)[C@H](CN(C)S(C)(=O)=O)Oc2cc(C3=CCCC3)ccc2S1(=O)=O
5	FC(F)Sc1ccc(Nc2ncnc3nc[nH]c23)cc1
6	Cc1cc(C)cc(Nc2ncnc3nc[nH]c23)c1

Assay by compound | 1 | 2 | 3 | 4 | 5 | 6
PGC1a acetyl inh | 12 | 15 | 4 | -12 | . | -2
MITF TRPM1 inh | 79* | 92* | . | . | -101 | -22
Wnt act | . | . | . | . | . | 7
miR-122 sensor | 2 | . | -1[16.7 µM] | -2[16.7 µM] | 2 | 6
UUG fidelity | -89 | . | 12 | . | -24 | -19
MITF act | . | -91 | . | . | 95* | 17

A few values from the results shown.
`C[C@H](CO)N1C[C@H](C)[C@H](CN(C)S(C)(=O)=O)Oc2cc(C3=CCCC3)ccc2S1(=O)=O` | PGC1a acetyl inh: -12
`Cc1cc(C)cc(Nc2ncnc3nc[nH]c23)c1` | PGC1a acetyl inh: -2
`c1ccc(-c2noc(-c3ccc4ccccc4c3)n2)nc1` | PGC1a acetyl inh: 12

Carrying on.
7	Nc1nc(-c2cc3ccccc3o2)cs1
8	COc1ccc(NS(=O)(=O)c2ccc(OC)c3ccccc23)cn1
9	COc1ccc(NS(=O)(=O)c2cccs2)cn1
10	CCC(=O)N1CCCCN2[C@@H](CO)[C@H](c3ccc(/C=C/c4ccccc4)cc3)[C@@H]2C1
11	S=C(Nc1ccc2nsnc2c1)N1CCCCCC1
12	S=C(Nc1ccc2nsnc2c1)NC1CCCCC1

Assay by compound | 7 | 8 | 9 | 10 | 11 | 12
PGC1a acetyl inh | 10 | 0 | -13 | -16 | 0 | .
MITF TRPM1 inh | -100 | 8 | 3 | . | -88 | -48
Wnt act | 56* | . | -2 | . | 9 | -9
miR-122 sensor | 9 | 356* | -1 | -1[16.7 µM] | . | .
UUG fidelity | -24 | -21 | -5 | 5 | . | .
MITF act | 102* | -5 | -4 | . | 94* | 46

13	O=C(Nc1ccc2nsnc2c1)N1CCCCC1
14	CC1CCN(C(=O)Nc2ccc3nsnc3c2)CC1
15	COc1ccccc1S(=O)(=O)N[C@@H]1CC[C@H](CCNC(=O)C2CCC2)O[C@@H]1CO
16	Cc1ccc(CNC(=O)COC(=O)C2CCN(S(=O)(=O)c3cccs3)CC2)cc1
17	C[C@@H]1CCCCO[C@H](CN(C)C(=O)NC2CCCCC2)[C@H](C)CN([C@@H](C)CO)C(=O)c2cc(NS(=O)(=O)c3ccccc3)ccc2O1
18	Cc1ccc2c(c1)COc1c3ccc(C(=O)N4CCOCC4)cc3nn1-2

Assay by compound | 13 | 14 | 15 | 16 | 17 | 18
PGC1a acetyl inh | 11 | -13 | -1 | 7 | -12 | -5
MITF TRPM1 inh | -18 | -88 | . | 0 | . | -82
Wnt act | 10 | . | . | 96* | . | 43*
miR-122 sensor | -9 | -6 | . | -6 | -6[16.7 µM] | 2
UUG fidelity | -22 | -6 | -20 | 10 | 0 | 28
MITF act | 19 | 100* | . | -2 | . | ?

19	O=C(O)c1ccc2c3n(nc2c1)-c1ccc(Cl)cc1CO3
20	Cc1ccc(C(=O)N2CCOCC2)cc1Cl
21	O=C(c1ccc2c3n(nc2c1)-c1ccc(Cl)cc1CO3)N1CCCCC1
22	O=C(NCC1CC1)c1ccc2c3n(nc2c1)-c1ccc(Cl)cc1CO3
23	CN(C)C(=O)[C@@H]1[C@@H](CO)[C@@H]2Cn3c(ccc(-c4ccncc4)c3=O)[C@@H]2N1Cc1ccccc1F
24	O=C(C1CC1)N1CCCCN2[C@H](C1)[C@@H](c1ccc(C#CC3CC3)cc1)[C@@H]2CO

Assay by compound | 19 | 20 | 21 | 22 | 23 | 24
PGC1a acetyl inh | . | 9 | . | . | . | -3
MITF TRPM1 inh | . | 1 | -96 | -62 | . | .
Wnt act | 36* | -1 | ? | 25 | . | .
miR-122 sensor | . | -5 | 0 | . | 0[16.7 µM] | 19[16.7 µM]
UUG fidelity | . | -47 | 1 | -15 | . | 10
MITF act | . | . | 103* | 59 | . | .

25	C[C@@H](NC(=O)C[C@@H]1C=C[C@@H](NS(=O)(=O)c2cccc(F)c2)[C@H](CO)O1)c1ccccc1
26	C[C@H](O)C#Cc1cnc2c(c1)C(=O)N([C@@H](C)CO)C[C@@H](C)[C@H](CN(C)Cc1cccc(F)c1)O2
27	CCCCn1cnc2c(oc3ccccc32)c1=O
28	N#CCn1cnc2c(oc3ccccc32)c1=O
29	O=C(C1CC1)N1CC(=O)N2[C@H](CO)[C@H](c3ccc(C#Cc4cccc(F)c4)cc3)[C@@H]2C1
30	O=C1c2ccccc2CN1CCSC(=S)N1CCOCC1
31	Cc1ccnc(NC(=O)C2CC(=O)N(Cc3ccccc3)C2)c1 (stereo unspecified)
32	O=C(NCCOc1ccccc1F)C1CC(=O)N(Cc2ccccc2)C1 (stereo unspecified)
33	Cc1ccc(NC(=O)C2CC(=O)N(Cc3ccccc3)C2)nc1 (stereo unspecified)

Assay by compound | 25 | 26 | 27 | 28 | 29 | 30 | 31 | 32 | 33
PGC1a acetyl inh | -1 | -3 | -1 | 0 | -16 | 2 | 19 | 7 | -1
MITF TRPM1 inh | . | . | -101 | 0 | . | -58 | -80 | 3 | 6
Wnt act | . | . | 9 | . | . | 41* | ? | 34* | -2
miR-122 sensor | 0[16.7 µM] | -2[16.7 µM] | -28 | . | . | -6 | . | 2 | 4
UUG fidelity | -6 | 3 | 10 | -5 | . | -11 | -18 | -10 | -19
MITF act | . | . | 99* | 1 | . | 54 | 90* | 1 | -7
